Measurements reported in patent US9150578B2, “5,8-dihydro-6H-pyrazolo[3,4-h]quinazolines as IGF-1R/IR inhibitors” (Boehringer Ingelheim International GmbH, priority 2012, dated 2015).

These molecules were tested on TC-71 (Ewing's sarcoma) cells (assay: Cell proliferation assay, TC-71 (Alamar Blue)). Conditions: TC-71 cells, 72 h, read-out: TC71 EC50 range.
Assay type: cell-based
Procedure: Cell Proliferation Assays
Published scientific data has described that interference with the Insulin-like Growth Factor-1 Receptor (IGF-1R) signaling pathway reduces the proliferation of TC-71 cells. Therefore TC-71 cells served as a positive control cell line for monitoring the activity of compounds against IGF-1R-mediated cell proliferation.
2000 TC-71 cells or 1000 HCT 116 cells were seeded per well in 180 μL IMDM+10% foetal calf serum (FCS)+penicillin/streptomycin into 96-well microtitre plates. The plates were placed in a cell culture incubator (37° C. in a humidified atmosphere of 95% […]/5 CO2) overnight. The following day, serial dilutions of compounds, prepared in duplicates, were transferred onto the cell layers (controls without compound). The cells were cultivated for a further 72 h in the cell culture incubator. 20 μL of Alamar Blue™ (Serotec Ltd, Düsseldorf, Germany) was added to each well and the plates incubated for 7 h in the cell culture incubator.

| Compound | EC50 |
| --- | --- |
| CC1Cc2nn(C)c(-c3ccc(-c4cnn(C)c4)cc3)c2-c2nc(Nc3ccn(C)n3)ncc21 (racemic) [I-100] | < 10 nM |
| CCn1cc(-c2ccc(-c3c4c(nn3C)CC(C)c3cnc(Nc5ccn(C)n5)nc3-4)cc2)cn1 (racemic) [I-101] | < 10 nM |
| CC1Cc2nn(C)c(-c3ccc(-c4cnn(C(C)C)c4)cc3)c2-c2nc(Nc3ccn(C)n3)ncc21 (racemic) [I-102] | < 10 nM |
| COCCn1cc(-c2ccc(-c3c4c(nn3C)CC(C)c3cnc(Nc5ccn(C)n5)nc3-4)cc2)cn1 (racemic) [I-103] | < 10 nM |
| Cn1cc(-c2ccc(-c3c4c(nn3C)CCc3cnc(Nc5ccn(CCO)n5)nc3-4)cc2)cn1 [I-003] | < 10 nM |
| Cn1cc(-c2ccc(-c3c4c(nn3C)CCc3cnc(Nc5ccn(CCCO)n5)nc3-4)cc2)cn1 [I-004] | < 10 nM |
| CN(C)C(=O)Cn1cc(Nc2ncc3c(n2)-c2c(nn(C)c2-c2ccc(-c4cnn(C)c4)cc2)CC3)cn1 [I-005] | < 10 nM |
| CC(C)n1cc(-c2ccc(-c3c4c(nn3C)CCc3cnc(Nc5ccn(C)n5)nc3-4)cc2)cn1 [I-006] | < 10 nM |
| Cc1cc(Nc2ncc3c(n2)-c2c(nn(C)c2-c2ccc(-c4cnn(C(C)C)c4)cc2)CC3)nn1C [I-007] | < 10 nM |
| COCCn1ccc(Nc2ncc3c(n2)-c2c(nn(C)c2-c2ccc(-c4cnn(C)c4)cc2)CC3)n1 [I-008] | < 10 nM |
| CN(C)C(=O)Cn1ccc(Nc2ncc3c(n2)-c2c(nn(C)c2-c2ccc(-c4cnn(C)c4)cc2)CC3)n1 [I-009] | < 10 nM |
| Cn1cc(Nc2ncc3c(n2)-c2c(nn(C)c2-c2ccc(-c4cnn(C)c4)cc2)CC3)cn1 [I-010] | < 10 nM |
| Cc1cc(Nc2ncc3c(n2)-c2c(nn(C)c2-c2ccc(-c4cnn(C)c4)cc2)CC3)nn1C [I-011] | < 10 nM |
| Cn1cc(-c2cccc(Cc3c4c(nn3C)CCc3cnc(Nc5ccn(C)n5)nc3-4)c2)cn1 [I-012] | < 10 nM |
| CN(C)C(=O)Cn1ccc(Nc2ncc3c(n2)-c2c(nn(C)c2Cc2cccc(-c4cnn(C)c4)c2)CC3)n1 [I-014] | 10 to 100 nM |
| CN(C)CCn1ccc(Nc2ncc3c(n2)-c2c(nn(C)c2Cc2cccc(-c4cnn(C)c4)c2)CC3)n1 [I-015] | < 10 nM |
| COCCn1ccc(Nc2ncc3c(n2)-c2c(nn(C)c2Cc2cccc(-c4cnn(C)c4)c2)CC3)n1 [I-016] | < 10 nM |
| CN(C)CCn1cc(Nc2ncc3c(n2)-c2c(nn(C)c2Cc2cccc(-c4cnn(C)c4)c2)CC3)cn1 [I-017] | < 10 nM |
| Cn1cc(Nc2ncc3c(n2)-c2c(nn(C)c2Cc2cccc(-c4cnn(C)c4)c2)CC3)cn1 [I-018] | 10 to 100 nM |
| Cc1cc(Nc2ncc3c(n2)-c2c(nn(C)c2Cc2cccc(-c4cnn(C)c4)c2)CC3)nn1C [I-019] | < 10 nM |
| CC(C)n1cc(-c2ccc(-c3c4c(nn3C)CCc3cnc(Nc5ccn(CCN(C)C)n5)nc3-4)cc2)cn1 [I-021] | < 10 nM |
| CCn1cc(Nc2ncc3c(n2)-c2c(nn(C)c2-c2ccc(-c4cnn(C)c4)cc2)CC3)cn1 [I-024] | < 10 nM |
| Cn1cc(-c2ccc(-c3c4c(nn3C)CCc3cnc(Nc5cnn(CCN6CCOCC6)c5)nc3-4)cc2)cn1 [I-025] | < 10 nM |
| Cn1cc(-c2ccc(-c3c4c(nn3C)CCc3cnc(Nc5cnn(Cc6ccncc6)c5)nc3-4)cc2)cn1 [I-026] | < 10 nM |
| Cn1cc(-c2ccc(-c3c4c(nn3C)CCc3cnc(Nc5ccn(CC(C)(C)O)n5)nc3-4)cc2)cn1 [I-028] | < 10 nM |
| Cn1cc(-c2ccc(-c3c4c(nn3C)CCc3cnc(Nc5ccn(CCN6CCOCC6)n5)nc3-4)cc2)cn1 [I-029] | < 10 nM |
| COCCN1CCN(CCn2ccc(Nc3ncc4c(n3)-c3c(nn(C)c3-c3ccc(-c5cnn(C)c5)cc3)CC4)n2)CC1 [I-030] | < 10 nM |

| Compound | EC50 |
| --- | --- |
| CN1CCN(CCn2ccc(Nc3ncc4c(n3)-c3c(nn(C)c3-c3ccc(-c5cnn(C)c5)cc3)CC4)n2)CC1 [I-031] | < 10 nM |
| Cn1cc(-c2cccc(Cc3c4c(nn3C)CCc3cnc(Nc5ccn(CCN6CCOCC6)n5)nc3-4)c2)cn1 [I-032] | < 10 nM |
| COCCN1CCN(CCn2ccc(Nc3ncc4c(n3)-c3c(nn(C)c3Cc3cccc(-c5cnn(C)c5)c3)CC4)n2)CC1 [I-033] | < 10 nM |
| CN1CCN(CCn2ccc(Nc3ncc4c(n3)-c3c(nn(C)c3Cc3cccc(-c5cnn(C)c5)c3)CC4)n2)CC1 [I-034] | < 10 nM |
| Cn1cc(-c2cccc(Cc3c4c(nn3C)CCc3cnc(Nc5ccn(CCCN6CCCC6)n5)nc3-4)c2)cn1 [I-035] | < 10 nM |
| COCCCn1ccc(Nc2ncc3c(n2)-c2c(nn(C)c2Cc2cccc(-c4cnn(C)c4)c2)CC3)n1 [I-036] | < 10 nM |
| Cn1cc(-c2cccc(Cc3c4c(nn3C)CCc3cnc(Nc5ccn(CCCn6ccnc6)n5)nc3-4)c2)cn1 [I-037] | < 10 nM |
| CCS(=O)(=O)CCn1ccc(Nc2ncc3c(n2)-c2c(nn(C)c2Cc2cccc(-c4cnn(C)c4)c2)CC3)n1 [I-038] | < 10 nM |
| CN(C)C(=O)CCCn1ccc(Nc2ncc3c(n2)-c2c(nn(C)c2Cc2cccc(-c4cnn(C)c4)c2)CC3)n1 [I-039] | < 10 nM |
| CN(C)CCNC(=O)Cn1ccc(Nc2ncc3c(n2)-c2c(nn(C)c2Cc2cccc(-c4cnn(C)c4)c2)CC3)n1 [I-040] | 10 to 100 nM |
| Cn1cc(-c2cccc(Cc3c4c(nn3C)CCc3cnc(Nc5ccn(CC(=O)N6CCOCC6)n5)nc3-4)c2)cn1 [I-041] | 10 to 100 nM |
| CCn1ccc(Nc2ncc3c(n2)-c2c(nn(C)c2-c2ccc(-c4cnn(CC(=O)N(C)C)c4)cc2)CC3)n1 [I-053] | < 10 nM |
| COCCn1ccc(Nc2ncc3c(n2)-c2c(nn(C)c2-c2ccc(-c4cnn(C(C)C)c4)cc2)CC3)n1 [I-054] | < 10 nM |
| CCn1ccc(Nc2ncc3c(n2)-c2c(nn(C)c2-c2ccc(-c4cnn(CC(C)C)c4)cc2)CC3)n1 [I-055] | < 10 nM |
| CCCn1cc(-c2ccc(-c3c4c(nn3C)CCc3cnc(Nc5ccn(CC)n5)nc3-4)cc2)cn1 [I-056] | < 10 nM |
| CCn1ccc(Nc2ncc3c(n2)-c2c(nn(C)c2-c2ccc(-c4cnn(Cc5ccccc5)c4)cc2)CC3)n1 [I-057] | < 10 nM |
| CCn1cc(-c2ccc(-c3c4c(nn3C)CCc3cnc(Nc5ccn(CCN(C)C)n5)nc3-4)cc2)cn1 [I-058] | < 10 nM |
| COCCn1cc(-c2ccc(-c3c4c(nn3C)CCc3cnc(Nc5ccn(CCN(C)C)n5)nc3-4)cc2)cn1 [I-059] | < 10 nM |
| CC(C)Cn1cc(-c2ccc(-c3c4c(nn3C)CCc3cnc(Nc5ccn(CCN(C)C)n5)nc3-4)cc2)cn1 [I-060] | < 10 nM |
| CCCn1cc(-c2ccc(-c3c4c(nn3C)CCc3cnc(Nc5ccn(CCN(C)C)n5)nc3-4)cc2)cn1 [I-061] | < 10 nM |
| CCn1ccc(Nc2ncc3c(n2)-c2c(nn(C)c2-c2ccc(-c4cnn(CCN(C)C)c4)cc2)CC3)n1 [I-062] | < 10 nM |
| CCn1ccc(Nc2ncc3c(n2)-c2c(nn(C)c2-c2ccc(-c4cnn(C)c4)cc2)CC3)n1 [I-065] | < 10 nM |
| CCn1ccc(Nc2ncc3c(n2)-c2c(nn(C)c2-c2ccc(-c4cnn(C)c4C)cc2)CC3)n1 [I-067] | 10 to 100 nM |
| CCn1ccc(Nc2ncc3c(n2)-c2c(nn(C)c2-c2ccc(-c4c[nH]nc4C)cc2)CC3)n1 [I-068] | 10 to 100 nM |
| CCn1ccc(Nc2ncc3c(n2)-c2c(nn(C)c2-c2ccc(-c4c(C)n[nH]c4C)cc2)CC3)n1 [I-069] | 10 to 100 nM |
| CN(C)CCn1ccc(Nc2ncc3c(n2)-c2c(nn(C)c2-c2ccc(-c4cnn(C)c4)cc2)CC3)n1 [I-070] | < 10 nM |
| Cn1cc(-c2ccc(-c3c4c(nn3C)CCc3cnc(Nc5ccn(C)n5)nc3-4)cc2)cn1 [I-071] | < 10 nM |
